The text below walks through data of PMC5101583, “Natural and non-natural amino-acid side-chain substitutions: affinity and diffraction studies of meditope–Fab complexes” (Acta Crystallographica. Section F, Structural Biology …, 2016).

The target in the experiment is cetuximab. Briefly: Surface plasmon resonance (Biacore T100) binding kinetics of meditope variants to immobilized cetuximab IgG. In general terms: SPR reads the build-up and loss of mass on a sensor chip optically.
Setting [1] is: SPR, approximate value (k a and/or k d are outside the measurement range for the Biacore T100).

Structures are written as SMILES.

With `CC(C)C[C@@H]1NC(=O)[C@H](CCCNC(=N)N)NC(=O)[C@H](CCCNC(=N)N)NC(=O)[C@H]([C@@H](C)O)NC(=O)[C@H](CO)NC(=O)[C@H](CC(C)C)NC(=O)[C@H](CC(=O)O)NC(=O)[C@H](Cc2c[nH]cn2)NC(=O)[C@H](CCC(N)=O)NC(=O)[C@@H](N)CSSC[C@@H](C(=O)O)NC(=O)[C@H](CCCCN)NC1=O` [F3H], the Kd (usually a measure of binding affinity in units of concentration) under setting [1] is above 50 µM.
As to `CC(C)C[C@@H]1NC(=O)[C@H](CCCNC(=N)N)NC(=O)[C@H](CCCNC(=N)N)NC(=O)[C@H]([C@@H](C)O)NC(=O)[C@H](CO)NC(=O)[C@H](C(c2ccccc2)c2ccccc2)NC(=O)[C@H](CC(=O)O)NC(=O)[C@H](Cc2ccccc2)NC(=O)[C@H](CCC(N)=O)NC(=O)[C@@H](N)CSSC[C@@H](C(=O)O)NC(=O)[C@H](CCCCN)NC1=O` [L5A(Ph)2], the “off-rate relative to that of the original meditope (times faster)” value (SPR k d relative to cQFD) was “approximately fivefold”. For the setting “SPR, Biacore T100, cetuximab IgG amine-coupled on CM5 chip (~5000 RU), 30 µl min^−1, HBS-EP+ pH 7.4”, this compound yielded a k a of 13 M^−1 s^−1 × 10^4. This compound showed a k d (SPR, Biacore T100, cetuximab IgG on CM5 chip, HBS-EP+ pH 7.4) of 0.068 s⁻¹. Further, the Kd (SPR, Biacore T100, cetuximab IgG on CM5 chip, HBS-EP+ pH 7.4, kinetic fit, estimated 38% error in K d) is 0.53 µM. Moreover, under “t = ln(2)/k d, relative to original meditope”, the “reduction of the half-life of the complex” value is listed as “approximately fivefold”.
For the compound `CC(C)C[C@@H]1NC(=O)[C@H](CCCNC(=N)N)NC(=O)[C@H](CCCNC(=N)N)NC(=O)[C@H]([C@@H](C)O)NC(=O)[C@H](CO)NC(=O)[C@H](CC(C)C)NC(=O)[C@H](CC(=O)O)NC(=O)[C@H](CCC(N)=O)NC(=O)[C@H](CCC(N)=O)NC(=O)[C@@H](N)CSSC[C@@H](C(=O)O)NC(=O)[C@H](CCCCN)NC1=O` [F3Q], the Kd under setting [1] was above 50 µM.
Same read-out and setting: in the case of `CC(C)C[C@@H]1NC(=O)[C@H](CCCNC(=N)N)NC(=O)[C@H](CCCNC(=N)N)NC(=O)[C@H]([C@@H](C)O)NC(=O)[C@H](CO)NC(=O)[C@H](Cc2ccc(O)cc2)NC(=O)[C@H](CC(=O)O)NC(=O)[C@H](Cc2ccccc2)NC(=O)[C@H](CCC(N)=O)NC(=O)[C@@H](N)CSSC[C@@H](C(=O)O)NC(=O)[C@H](CCCCN)NC1=O` [L5Y] it was above 50 µM.
